{"sequences": {"note": "The chains behind the UniProt entries cited, without tags or fusion partners. Residues count along the entry.", "UniProt Q00960, 27-1482 limits assumed": "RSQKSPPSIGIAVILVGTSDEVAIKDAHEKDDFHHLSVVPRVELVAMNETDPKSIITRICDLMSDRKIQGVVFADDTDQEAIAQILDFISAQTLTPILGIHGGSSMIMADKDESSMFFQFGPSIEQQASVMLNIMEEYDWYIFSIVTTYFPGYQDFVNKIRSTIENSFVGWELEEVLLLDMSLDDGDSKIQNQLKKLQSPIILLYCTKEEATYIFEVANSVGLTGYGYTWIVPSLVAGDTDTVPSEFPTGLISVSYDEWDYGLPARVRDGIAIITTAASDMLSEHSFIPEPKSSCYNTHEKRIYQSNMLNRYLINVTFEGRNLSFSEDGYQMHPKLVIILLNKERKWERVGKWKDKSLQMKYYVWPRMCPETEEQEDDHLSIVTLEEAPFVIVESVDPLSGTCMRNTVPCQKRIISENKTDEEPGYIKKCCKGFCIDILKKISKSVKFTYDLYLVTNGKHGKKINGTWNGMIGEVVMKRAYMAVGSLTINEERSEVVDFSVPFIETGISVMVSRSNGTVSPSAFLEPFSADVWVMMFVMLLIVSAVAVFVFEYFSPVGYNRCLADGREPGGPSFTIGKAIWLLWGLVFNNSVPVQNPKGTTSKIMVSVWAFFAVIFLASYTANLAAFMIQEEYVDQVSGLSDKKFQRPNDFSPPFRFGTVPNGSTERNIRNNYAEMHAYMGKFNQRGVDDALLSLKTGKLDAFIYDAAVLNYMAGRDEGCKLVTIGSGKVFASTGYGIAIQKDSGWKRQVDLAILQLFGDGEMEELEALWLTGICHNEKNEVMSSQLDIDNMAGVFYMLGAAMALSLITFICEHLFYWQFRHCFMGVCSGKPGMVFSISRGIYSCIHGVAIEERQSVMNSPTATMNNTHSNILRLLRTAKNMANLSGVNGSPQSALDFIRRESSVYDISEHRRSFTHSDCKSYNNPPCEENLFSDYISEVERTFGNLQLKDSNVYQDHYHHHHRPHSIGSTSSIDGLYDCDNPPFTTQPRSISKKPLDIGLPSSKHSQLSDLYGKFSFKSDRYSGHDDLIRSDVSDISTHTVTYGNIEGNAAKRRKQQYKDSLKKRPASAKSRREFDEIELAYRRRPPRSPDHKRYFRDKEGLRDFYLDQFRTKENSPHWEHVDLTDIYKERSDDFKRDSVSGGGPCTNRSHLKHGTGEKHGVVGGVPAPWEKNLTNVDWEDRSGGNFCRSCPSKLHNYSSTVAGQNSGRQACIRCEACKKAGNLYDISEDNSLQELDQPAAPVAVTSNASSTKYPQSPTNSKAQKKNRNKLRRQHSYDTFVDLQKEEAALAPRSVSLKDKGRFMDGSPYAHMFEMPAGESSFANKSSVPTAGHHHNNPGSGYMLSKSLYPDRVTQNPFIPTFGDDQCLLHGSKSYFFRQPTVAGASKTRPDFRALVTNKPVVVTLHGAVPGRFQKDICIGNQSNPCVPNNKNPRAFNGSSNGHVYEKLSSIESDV"}, "source": "patent US20240199576A1", "about": "“NOVEL CYCLOPENTA[C]PYRROL NEGATIVE ALLOSTERIC MODULATORS OF NR2B” (Novartis AG, priority 2021, published 2024)", "data": [{"target": "NR2B (Rattus norvegicus (Rat), UniProt Q00960)", "test": "NR2B rat cortical neuron calcium influx assay", "conditions": "rat cortical neurons, glutamate and glycine stimulated calcium influx, 2 hours compound incubation", "units": {"IC50": "nM"}, "values": [{"smiles": "Oc1c(F)cc(C(O)CN2CC3CC(Oc4ccc(F)cc4F)CC3(O)C2)cc1F", "note": "(centres unmarked)", "IC50": 150}, {"smiles": "Oc1ccc(C(O)CN2CC3CC(Oc4ccc(F)cc4F)CC3(O)C2)cc1", "note": "(centres unmarked)", "IC50": 41}, {"smiles": "Oc1c(F)cc(C(O)CN2C[C@H]3C[C@H](Oc4ccccc4)[C@H](O)[C@@]3(O)C2)cc1F", "note": "(single isomer, unassigned)", "IC50": 240}, {"smiles": "Oc1ccc(C(O)CN2C[C@@H]3C[C@@H](Oc4ccccc4)[C@@H](O)[C@]3(O)C2)nc1F", "note": "(single isomer, unassigned)", "IC50": "> 10000"}, {"smiles": "Oc1ccc(C(O)CN2C[C@H]3C[C@H](Oc4ccccc4)[C@H](O)[C@@]3(O)C2)nc1F", "note": "(single isomer, unassigned)", "IC50": 140}, {"smiles": "Oc1ccc(C(O)CN2CC3CC(Oc4ccccc4F)CC3(O)C2)nc1", "note": "(single isomer, unassigned) [Example 1A]", "IC50": 74}, {"smiles": "Oc1ccc(C(O)CN2CC3CC(Oc4ccccc4F)CC3(O)C2)nc1", "note": "(single isomer, unassigned) [Example 1D]", "IC50": 11}, {"smiles": "Oc1c(F)cc(C(O)CN2CC3CC(Oc4ccccc4F)C(O)C3(O)C2)cc1F", "note": "(single isomer, unassigned) [Example 6A]", "IC50": 1500}, {"smiles": "Oc1c(F)cc(C(O)CN2CC3CC(Oc4ccccc4F)C(O)C3(O)C2)cc1F", "note": "(single isomer, unassigned) [Example 6B]", "IC50": 83}, {"smiles": "Oc1c(F)cc(C(O)CN2CC3CC(Oc4ccccc4F)C(O)C3(O)C2)cc1F", "note": "(single isomer, unassigned) [Example 6C]", "IC50": 5.5}, {"smiles": "Oc1c(F)cc(C(O)CN2CC3CC(Oc4ccccc4F)C(O)C3(O)C2)cc1F", "note": "(single isomer, unassigned) [Example 6D]", "IC50": 940}, {"smiles": "Oc1ccc(C(O)CN2CC3CC(Oc4ccccc4)CC3(O)C2)nc1", "note": "(single isomer, unassigned) [Example 7A]", "IC50": 40}, {"smiles": "Oc1ccc(C(O)CN2CC3CC(Oc4ccccc4)CC3(O)C2)nc1", "note": "(single isomer, unassigned) [Example 7B]", "IC50": 1600}, {"smiles": "Oc1c(F)cc(C(O)CN2CC3CC(Oc4ccccc4F)CC3(O)C2)cc1F", "note": "(single isomer, unassigned) [Example 8A]", "IC50": 140}, {"smiles": "Oc1c(F)cc(C(O)CN2CC3CC(Oc4ccccc4F)CC3(O)C2)cc1F", "note": "(single isomer, unassigned) [Example 8B]", "IC50": 3600}, {"smiles": "Oc1c(F)cc(C(O)CN2CC3CC(Oc4ccccc4F)CC3(O)C2)cc1F", "note": "(single isomer, unassigned) [Example 8C]", "IC50": 8.1}, {"smiles": "Oc1c(F)cc(C(O)CN2CC3CC(Oc4ccccc4F)CC3(O)C2)cc1F", "note": "(single isomer, unassigned) [Example 8D]", "IC50": 2.8}, {"smiles": "Oc1ccc(C(O)CN2CC3CC(Oc4ccccc4)CC3(O)C2)nc1F", "note": "(single isomer, unassigned) [Example 9A]", "IC50": 590}, {"smiles": "Oc1ccc(C(O)CN2CC3CC(Oc4ccccc4)CC3(O)C2)nc1F", "note": "(single isomer, unassigned) [Example 9B]", "IC50": "> 10000"}, {"smiles": "Oc1ccc(C(O)CN2CC3CC(Oc4ccccc4)CC3(O)C2)nc1F", "note": "(single isomer, unassigned) [Example 9C]", "IC50": 13}, {"smiles": "Oc1ccc(C(O)CN2CC3CC(Oc4ccccc4)CC3(O)C2)nc1F", "note": "(single isomer, unassigned) [Example 9D]", "IC50": 8.9}, {"smiles": "Oc1c(F)cc(C(O)CN2CC3CC(Oc4ccccc4)CC3(O)C2)cc1F", "note": "(single isomer, unassigned) [Example 10A]", "IC50": 150}, {"smiles": "Oc1c(F)cc(C(O)CN2CC3CC(Oc4ccccc4)CC3(O)C2)cc1F", "note": "(single isomer, unassigned) [Example 10B]", "IC50": 1700}, {"smiles": "Oc1ccc(C(O)CN2C[C@H]3C[C@H](Oc4ccccc4)C[C@@]3(O)C2)nc1Cl", "note": "(single isomer, unassigned) [Example 11A]", "IC50": 3.5}, {"smiles": "Oc1ccc(C(O)CN2C[C@H]3C[C@H](Oc4ccccc4)C[C@@]3(O)C2)nc1Cl", "note": "(single isomer, unassigned) [Example 11B]", "IC50": 14}, {"smiles": "Oc1c(F)cc(CCN2CC3CC(Oc4ccccc4F)CC3(O)C2)cc1F", "note": "(single isomer, unassigned) [Example 14A]", "IC50": 9}, {"smiles": "Oc1c(F)cc(CCN2CC3CC(Oc4ccccc4F)CC3(O)C2)cc1F", "note": "(single isomer, unassigned) [Example 14B]", "IC50": 210}, {"smiles": "Oc1c(F)cc(CCN2CC3CC(Oc4ccc(F)cc4F)CC3(O)C2)cc1F", "note": "(single isomer, unassigned) [Example 15A]", "IC50": 19}, {"smiles": "Oc1c(F)cc(CCN2CC3CC(Oc4ccc(F)cc4F)CC3(O)C2)cc1F", "note": "(single isomer, unassigned) [Example 15B]", "IC50": 1400}, {"smiles": "Oc1c(F)cc(CCN2CC3CC(Oc4ccccc4)CC3(O)C2)cc1F", "note": "(single isomer, unassigned) [Example 16A]", "IC50": 41}, {"smiles": "Oc1c(F)cc(CCN2CC3CC(Oc4ccccc4)CC3(O)C2)cc1F", "note": "(single isomer, unassigned) [Example 16B]", "IC50": 530}, {"smiles": "Oc1ccc(CCN2CC3CC(Oc4ncccc4F)CC3(O)C2)cc1", "note": "(single isomer, unassigned) [Example 17A]", "IC50": 53}, {"smiles": "Oc1ccc(CCN2CC3CC(Oc4ncccc4F)CC3(O)C2)cc1", "note": "(single isomer, unassigned) [Example 17B]", "IC50": 1200}, {"smiles": "Oc1ccc(CCN2CC3CC(Oc4cccnc4F)CC3(O)C2)cc1", "note": "(single isomer, unassigned) [Example 18A]", "IC50": 570}, {"smiles": "Oc1ccc(CCN2CC3CC(Oc4cccnc4F)CC3(O)C2)cc1", "note": "(single isomer, unassigned) [Example 18B]", "IC50": 4000}]}]}
